From paper PMC6899342, “Design and preliminary application of affinity peptide based on the structure of the porcine circovirus type II Capsid (PCV2 Cap)” (PeerJ, 2019)
Where no end group is shown, it is not given here.

Sequences of proteins named here, by UniProt entry; tags and fusion partners are left off.
UniProt O56129, whole entry: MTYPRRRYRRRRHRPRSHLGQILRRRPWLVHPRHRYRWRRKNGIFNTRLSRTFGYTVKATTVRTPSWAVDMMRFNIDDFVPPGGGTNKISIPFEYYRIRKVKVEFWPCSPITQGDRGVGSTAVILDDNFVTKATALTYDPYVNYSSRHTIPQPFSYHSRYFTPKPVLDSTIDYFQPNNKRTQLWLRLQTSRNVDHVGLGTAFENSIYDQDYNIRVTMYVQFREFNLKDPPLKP

Target: T1, PCV2 Cap protein (Porcine circovirus 2, UniProt O56129)
T1 construct: made in house; host or cells: E. coli BL21 (pET28a-Cap)
Assay: biochemical
Assay type: binding, porcine circovirus type II
Conditions: pH 7.4, read-out: ka
Method: The equilibrium binding constant (KD) of peptides was determined using an Open SPR instrument (Nicoya, Canada). First, purified Cap protein was covalently immobilized on a carboxyl Au colloidal nanoparticles chip. […] Then, all peptides were respectively dissolved in PBS at predetermined concentrations and injected to detect the resonance signal changes. In each cycle, 300 µL of peptide solution was injected into the flow cell of the Cap chip for 5 min. Finally, the data were assessed to determine the association constant (ka, 1/Ms), the dissociation constant (kd, 1/s), the equilibrium binding constant (KD, M), and KD = kd/ka via Trace Drawer 1.7 (Nicoya, Canada).
All the steps were performed according to manufacturer’s instructions. First, the activation of carboxyl chip: the chip is activated by the EDC/NHS reagent in the amine coupling kit. […] The last step is to block the chip with blocking buffer. In every step, The 300 μL sample was flowed through the chip for 5 min at a constant flow rate of 20 μL/min.
Dissociation constant Kd represents the ratio of AB (ie, AB) dissociated in unit time to the initial AB before dissociation, which represents the speed of the dissociation reaction.Equilibrium dissociation constant KD =kd/ka, KD unit is M (mol/L)
1:1 binding interaction model represents the binding mode of ligand and target according to 1:1. […]

## DYWWQSWE [Peptide L11]
  kon: 10100 M⁻¹ s⁻¹
